# Laboratory results taken from patent publication US20030166007A1, “Chemical proteomics” (MDS Proteomics Inc., priority 2002, published 2003).
# By UniProt entry, the sequences of proteins in these tests, tags left out. Where a name states a change or a piece, a line headed by the entry shows the natural chain unless it says otherwise.
# UniProt P22102: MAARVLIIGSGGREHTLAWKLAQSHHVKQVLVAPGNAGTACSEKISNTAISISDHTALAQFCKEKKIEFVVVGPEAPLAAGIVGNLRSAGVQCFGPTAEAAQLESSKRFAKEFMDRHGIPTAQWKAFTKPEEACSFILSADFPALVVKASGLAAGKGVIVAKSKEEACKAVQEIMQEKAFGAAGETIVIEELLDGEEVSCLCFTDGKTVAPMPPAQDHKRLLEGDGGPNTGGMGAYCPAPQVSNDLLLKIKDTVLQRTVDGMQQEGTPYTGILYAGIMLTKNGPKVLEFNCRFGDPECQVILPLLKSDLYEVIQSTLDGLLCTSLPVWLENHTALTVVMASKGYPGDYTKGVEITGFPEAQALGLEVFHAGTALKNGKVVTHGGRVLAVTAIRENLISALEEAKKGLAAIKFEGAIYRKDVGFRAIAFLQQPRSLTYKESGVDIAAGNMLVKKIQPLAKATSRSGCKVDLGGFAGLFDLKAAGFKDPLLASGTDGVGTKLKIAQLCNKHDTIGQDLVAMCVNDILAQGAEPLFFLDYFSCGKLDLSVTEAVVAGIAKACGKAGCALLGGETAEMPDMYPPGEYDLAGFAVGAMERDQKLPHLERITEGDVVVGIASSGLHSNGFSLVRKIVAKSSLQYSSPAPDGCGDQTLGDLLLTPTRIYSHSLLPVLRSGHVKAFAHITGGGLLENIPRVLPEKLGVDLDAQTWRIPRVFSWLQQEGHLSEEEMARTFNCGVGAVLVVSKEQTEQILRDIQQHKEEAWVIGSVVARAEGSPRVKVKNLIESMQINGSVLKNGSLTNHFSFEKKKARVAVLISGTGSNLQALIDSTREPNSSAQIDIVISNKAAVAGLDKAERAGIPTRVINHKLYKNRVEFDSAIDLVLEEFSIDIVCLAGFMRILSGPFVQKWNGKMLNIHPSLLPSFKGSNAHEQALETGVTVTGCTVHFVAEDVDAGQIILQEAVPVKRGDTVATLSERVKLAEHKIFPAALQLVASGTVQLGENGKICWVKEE
# Where two headings read alike, the source gives them in different places.
# How the values were obtained:
# [1] = target: aminoimidazole ribonucleotide synthetase (AIRS) (Homo sapiens, UniProt P22102); details: HEK 293 lysate; part of trifunctional GARS-AIRS-GART
# GARS = GARS (Homo sapiens, UniProt P22102); details: Methotrexate attached to magnetic PEGA support, HEK 293 lysate
# [2] = target: Glycinamideribonucleotide transformylase (GART) (Homo sapiens, UniProt P22102); details: HEK 293 lysate, eluted with 10 mM Methotrexate
# GART = GART (Homo sapiens, UniProt P22102); details: Methotrexate attached to magnetic PEGA support, HEK 293 lysate
smiles,measurement,setting,value
CN(Cc1cnc2nc(N)nc(N)c2n1)c1ccc(C(=O)N[C@@H](CCC(=O)O)C(=O)O)cc1 [Methotrexate],Association with the Methotrexate matrix,[1],binding occurs through the GART domain
same,Protein captured and identified,GARS,identified
same,Protein identified by Mass Spec.; Known Folate targets,[2],direct interaction between GART and the Methotrexate ligand
same,Protein identified by Mass Spec.; Known Folate targets,[2]; listed as MTX,✓
same,Protein captured and identified,GART,identified
